This is an account of results in patent US20180171027A1 (Celldex Therapeutics, Inc., priority 2015, published 2018).

One assay concerns SCCHN cell lines. Briefly: Anti-proliferative activity on a panel of SCCHN cell lines (CellTiter-Glo). In kind it is cell-based. The procedure:
SCCHN cells were seeded in 96 well-plates at 3-5,000 cells/well in media containing reduced (1-3)% fetal bovine serum. […] Cells were treated with CellTiter-Glo® (Promega), and luminescence was measured in a BioTek plate reader. Normalized luminescence were plotted as a function of log-transformed drug concentration, and data were fit to a 4-parameter nonlinear regression algorithm using GraphPad Prism.

The subject of assay [1] is CTG-0790 (patient-derived xenograft). The experiment in a line: Patient-derived xenograft tumor mouse model, tumor volume. Format: in vivo. The note with it: CTG-0790 PDX, 10 mg/kg (of each) intraperitoneally. The procedure: (§1) CTG-0790 cells were a primary patient-derived SCCHN tumor. Human FADU Head and Neck cells (ATCC No. HTB-43) were maintained at 37° C. in a 5% CO2 incubator in RPMI 1640 medium containing 4.5 g/L glucose, L-glutamine, sodium pyruvate and 10% fetal bovine serum. Xenografts were established by subcutaneously injecting 5×10^−6 cells per mouse (suspended in 50% matrigel) into the right flanks of 4- to 6-week-old athymic nu/nu mice. Tumors were allowed to grow up to 200 mm^3 before randomization for efficacy studies. […] Caliper measurements were used to calculate tumor volumes using the formula:
(§2) tumor volume=π÷6(length×width×width)
(§3) for tumors grown in mice. Antitumor effects are expressed as percent delta tumor growth inhibition (TGI), which was calculated as follows:
(§4) percent delta TGI=1−(dT÷dC)×100,
(§5) where dT=change in mean tumor volume in treatment group compared to the value at staging, and dC=change in mean tumor volume in control group compared to the value at staging.

The test system of another assay is cell surface ErbB3. The experiment in a line: Cell surface ErbB3 after cetuximab treatment. The note with it: CAL27 and UNC7 SCCHN cell lines. In kind it is cell-based.
The test system of assay [2] is FaDu (cell-line-derived xenograft). Briefly: Cell-line-derived xenograft tumor mouse model, tumor volume. In kind it is in vivo. The note with it: FaDu CDX, 10 mg/kg (of each) intraperitoneally. As to the method:
as §1, §2, §3, §4, §5

The test system of the next assay is ERK pathway. Briefly: Western blot, activation of ERK pathway. In kind it is cell-based. As to conditions: drug-sensitive cells, absence of exogenous ligand. As to the method:
(§6) Next, the interplay between ErbB activation and activation of ERK and AKT pathways was assessed by analyzing activation of ErbB, ERK, and AKT, respectively, in the absence of exogenous ligand (FIG. 4).

The subject of a further assay is AKT pathway. The experiment in a line: Western blot, activation of AKT pathway. In kind it is cell-based. As to conditions: drug-sensitive cells, absence of exogenous ligand. As to the method:
as §6

As for “cetuximab: anti-EGFR monoclonal antibody [reference compound]”, the cellular proliferation result in the assay on SCCHN cell lines (certain SCCHN cell lines (FIGS. 3A-3E)) was “capable of impairing cellular proliferation”; in the assay on SCCHN cell lines (other SCCHN cell lines (FIGS. 3F-3H) and a non-cancerous skin cell line), “minimal impact”. Moreover, the “tumor growth (tumor volume)” value in assay [1] and in assay [2] was “delayed tumor growth” each time. Also, the “cell surface ErbB3” value in the assay with cell surface ErbB3 is “upregulation”. Further, the “activation of the ERK pathway” value in the assay with ERK pathway is listed as “inhibited activation”. In the assay with AKT pathway, the “activation of the AKT pathway” value was “not activation of the AKT pathway”.
